The text below walks through data of paper PMC7175131, “Synthesis, In Vitro Evaluation and Molecular Docking of the 5-Acetyl-2-aryl-6-hydroxybenzo[b]furans against Multiple Targets Linked to Type 2 Diabetes” (Biomolecules, 2020).

The target of this assay is T1, PTP1B (Homo sapiens, UniProt P18031).
T1 construct: purchased Sigma Aldrich, Modderfontein, South Africa
T1 sequence (P18031 1-435): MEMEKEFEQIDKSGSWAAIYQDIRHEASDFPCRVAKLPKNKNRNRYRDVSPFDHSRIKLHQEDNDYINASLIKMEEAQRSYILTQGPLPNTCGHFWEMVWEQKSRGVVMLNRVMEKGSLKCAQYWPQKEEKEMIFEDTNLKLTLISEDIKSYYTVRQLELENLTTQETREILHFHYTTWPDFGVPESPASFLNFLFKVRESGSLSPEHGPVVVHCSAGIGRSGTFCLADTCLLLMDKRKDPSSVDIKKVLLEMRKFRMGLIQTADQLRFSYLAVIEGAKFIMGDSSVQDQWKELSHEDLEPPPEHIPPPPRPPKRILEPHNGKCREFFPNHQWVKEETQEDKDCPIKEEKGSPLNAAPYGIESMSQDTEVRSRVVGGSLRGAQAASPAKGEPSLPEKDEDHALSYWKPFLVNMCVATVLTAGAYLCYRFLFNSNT
Nature of the assay: PTP1B inhibition assay (pNPP substrate). The format is biochemical. The following applies: Hepes buffer pH 7.0, triplicate. The procedure: Activity of PTPase (Sigma Aldrich, Modderfontein, South Africa) was evaluated using p-nitrophenylphosphate (PNPP) as the substrate. […] The reaction was stopped by the addition of 30 μL of 3 M NaOH and absorbance was determined at wavelength of 410 nm. Control tubes without the enzyme were ran in parallel to nullify the nonenzymatic reaction and for calculating the concentration of p-nitrophenolate ions produced in the reaction mixture.

Usually IC50 stands for the midpoint of a concentration-inhibition curve. Higher therefore signals a need for much substance. On to “sodium vanadate [Na2VO4, reference compound]”, for which the 50% inhibitory concentration (IC50) was 38.42 ± 0.28 µM. Under “listed as sodium vanadate”, the half-maximal inhibitory concentration (IC50) is 38.4 µM.
